# C2C12 statin: suppressors of simvastatin-induced myotoxicity in C2C12 myotubes; hit rate 0.78% among 330,000; rescue of ATP level, % at 7.49 µM; ATP luminescence, 48 h; scaled: DMSO 0, geranylgeraniol control 100;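 active = mean ATP rescue above about 67%, or every replicate alone reaching that limit, limit read from the data, passing the limit was not always enough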;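 also: myotubes were challenged with 10 µM simvastatin during compound exposure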
# Cneo AK release: Cryptococcus neoformans lysis via adenylate kinase release. lysis activity, % at 15 µM. C. neoformans lysis, adenylate kinase release luminescence, 4 h; normalised: neutral wells 0, clomiphene wells 100. hit rate 0.2% among 360,000;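 active = mean lysis activity across replicates of at least 80%, whatever share of replicates individually reach that level; inactive = mean lysis activity below 80%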
#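 read-out = cell lysis signal | test system = log-phase Cryptococcus neoformans yeast cells | input = cells at 5 × 10^6 per mL | medium = fresh YPD growth medium | signal = luminescent adenylate kinase detection reagent | timing = 4 h at 37 °C static, read 1 h later | dosing = single dose | controls = Clomiphene as positive lysis control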
# miR122 inh: miR-122 inhibition in Huh7 cells; activation (reporter increase), % at 12.5 µM; hit rate 0.3% among 340,000; Huh7 miR-122 Renilla luciferase sensor, 48 h; neutral wells = 0, positive control = 100;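 active = mean replicate activation score at least 90 and every replicate individually at or above 90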;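 also: higher luciferase means less miR-122 activity so hits act as miR-122 inhibitors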
# UUG fidelity: alters start codon recognition fidelity in yeast; AID 602363; activity score, % at 18.7 µM; 350,000 tested, 0.13% active; S. cerevisiae UUG-firefly luciferase reporter, luminescence/redox ratio;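 active means replicate mean at a twofold rise or more, about +100% in these data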;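 further: firefly luciferase made from a UUG start codon reports start codon fidelity; reporter light over untreated wells divided by growth signal over untreated wells; some hits fall short of that in this replicate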
# An asterisk follows results filed as active; / = no result given; + = active, no number; [ ] = another dose, or the depositor's remark. An excerpt weighted towards active compounds, which were near 1.2% of everything screened.
cpd	mol	C2C12 statin	Cneo AK release
1	Cc1ccccc1NC(=O)c1cc2ccccc2o1	0	-2
2	COc1ccc(S(=O)(=O)N2CCOCC2)cc1NC(=O)CSc1ncccn1	110*	2
3	O=C(Nc1ccccn1)c1cccc(S(=O)(=O)N2CCOCC2)c1	-8	1
4	Cc1cc(NC(=O)c2ccc(Cl)c(S(=O)(=O)N3CCOCC3)c2)no1	128*	-2
5	COc1ccc(S(=O)(=O)N2CCCCC2)cc1NC(=O)CSc1ncccn1	2	-1
6	O=C(Nc1ccccn1)c1ccc(Cl)c(S(=O)(=O)N2CCOCC2)c1	/	-3
7	O=C(NC(=S)N1CCN(CCO)CC1)C12CC3CC(CC(C3)C1)C2	3	-1
8	CC12CC3CC(C)(C1)CC(C(=O)NC(=S)N1CCCCC1)(C3)C2	1	111*
9	Cc1ccc(Sc2cc(NCCCO)c([N+](=O)[O-])c3nonc23)cc1	102*	32
10	C[C@@H]1CCCCO[C@H](CN(C)S(=O)(=O)c2cccs2)[C@@H](C)CN([C@@H](C)CO)C(=O)c2cc(NC(=O)CCCN(C)C)ccc2O1	/	45
11	CN1CCN(c2ccc(NC(=S)NC(=O)c3cccc4c(Br)cccc34)cc2)CC1	126*	2
12	Cn1c(CCNC(=O)c2cccs2)nnc1SCC(=O)Nc1nc(-c2ccccc2)cs1	-26	-1
13	Cc1csc(NC(=O)CSc2nnc(CCNC(=O)c3cccs3)n2C)n1	98*	-2
14	COc1ccccc1C(=O)Nc1ccc2c(c1)OC[C@@H](C)N(C(C)=O)C[C@@H](C)[C@@H](OC)CN(C)C2=O	2	-3
15	Cc1cc(C)nc(NC(=O)c2ccc([N+](=O)[O-])c(C)c2)n1	-2	2

cpd	miR122 inh	UUG fidelity
1	/	-1
2	-6	-23
3	160*	0
4	1	-11
5	/	2
6	-10	-19
7	0	-6
8	4	-22
9	-3	-10
10	4[16.7 µM]	12
11	6	-14
12	-6	-19
13	-4	-25
14	/	/
15	2	-8

# Additional results:
cpd	mol	C2C12 statin	Cneo AK release
16	CCOc1ccc(C(=O)Nc2nc(C)cc(C)n2)cc1[N+](=O)[O-]	93*	0
17	C=CCSc1nc(C)c2cc(C)cc(C)c2n1	133*	-3
18	C[C@H]1CN([C@@H](C)CO)C(=O)Cc2cc(NC(=O)Nc3ccc4c(c3)OCO4)ccc2O[C@@H]1CN(C)C	-59	1
19	CCC1=NN(C(=O)c2ccccc2O)C(O)(c2ccccc2)C1 (centres undefined)	0	-2
20	CCc1ccc(OC)c(S(=O)(=O)Nc2ccccc2C)c1	-2	6
21	COc1ccc(C)cc1S(=O)(=O)Nc1cc(Cl)ccc1Cl	35	0
22	COc1ccc(C)cc1S(=O)(=O)Nc1ccccc1C	24	3
23	COc1ccc(OC)c(NS(=O)(=O)c2ccc(N3CCCC3=O)cc2)c1	/	1
24	COc1ccc(S(=O)(=O)Nc2cc(Cl)ccc2OC)cc1	-49	3
25	COc1ccc(Cl)cc1NS(=O)(=O)c1ccc(OC)c(OC)c1	1	0
26	COc1ccc(CCNS(=O)(=O)c2ccc(N3CCCC3=O)cc2)cc1	-5	-1
27	CCC(=O)N(C)C[C@H]1Oc2ncc(-c3ccc(C#N)cc3)cc2C(=O)N([C@H](C)CO)C[C@H]1C	19	-2
28	CCCCC(=O)NNC(=S)NC(=O)CCC	112*	1
29	CCCCC(=O)NC(=S)NNC(=O)CC#N	9	4
30	CC/C(O)=C(\C#N)c1nnc2n1CCCCC2	87*	0

cpd	miR122 inh	UUG fidelity
16	-3	-9
17	-4	1
18	-4[16.7 µM]	1
19	+	-32
20	115*	-15
21	215*	-4
22	74	-9
23	120*	5
24	138*	-4
25	36	-6
26	17	-2
27	-7[16.7 µM]	7
28	-5	-50
29	-2	-6
30	4	-5

# 2 compounds drawn at random from the list so far, as already listed:
cpd	mol	C2C12 statin	Cneo AK release
19	CCC1=NN(C(=O)c2ccccc2O)C(O)(c2ccccc2)C1 (centres undefined)	0	-2
27	CCC(=O)N(C)C[C@H]1Oc2ncc(-c3ccc(C#N)cc3)cc2C(=O)N([C@H](C)CO)C[C@H]1C	19	-2

cpd	miR122 inh	UUG fidelity
19	+	-32
27	-7[16.7 µM]	7

# Following part:
cpd	mol	C2C12 statin	Cneo AK release
31	CN(C)CCCNC(=O)C[C@@H]1CC[C@@H]2[C@H](COc3ccc(NS(C)(=O)=O)cc3C(=O)N2C)O1	19	0
32	CCOCc1cc(C)[nH]c(=O)c1C#N	99*	-3
33	O=C(c1ccc2c(c1)C(=O)N(Cc1ccco1)C2=O)N1CCOCC1	4	-2
34	O=C(O)c1ccc(C(=O)c2ccc3c(c2)C(=O)N(Cc2ccco2)C3=O)cc1	110*	-2
35	O=C(c1ccccc1)N1CC[C@@H]2[C@H](CO)Nc3ccc(C#Cc4cccnc4)cc3[C@@H]21	-34	-5
36	N/C(=N\OC(=O)c1cccc(Br)c1)c1ccc(Br)cc1	96*	0
37	N/C(=N\OC(=O)c1ccc(Br)cc1)c1ccccc1	-9	/
38	CCCNC(=O)Nc1ccc2c(c1)C(=O)N(C)C[C@H](OC)[C@@H](C)CN(Cc1ccccc1)[C@@H](C)CO2	-21	/
39	O=C(Cc1ccccc1)N1C[C@H]2[C@@H](c3ccccc31)[C@H](CO)N2C(=O)C1CCCCC1	11	-3
40	O=C(C1CCCCC1)N1C[C@H]2[C@@H](c3ccccc31)[C@@H](CO)N2C(=O)c1ccccc1	-11	-2
41	O=C(C1CC1)N1C[C@@H]2[C@H](c3ccccc31)[C@H](CO)N2C(=O)c1ccccc1	-33	-1
42	O=C(Cc1ccccc1)N1C[C@H]2[C@@H](c3ccccc31)[C@@H](CO)N2C(=O)C1CCCCC1	-13	-3
43	CC(=O)/C(N=Nc1ccc(OC(F)(F)F)cc1)=C(\C)O	-11	/
44	CCOC(=O)NC(=O)/C(N=Nc1ccc(C(F)(F)F)cc1)=C(\C)O	99*	1
45	Cc1cc(C)nc(SCc2n[nH]c(=S)n2C)n1	92*	-1

cpd	miR122 inh	UUG fidelity
31	-18[16.7 µM]	/
32	0	-20
33	-5	-13
34	-5	0
35	-9[16.7 µM]	-15
36	8	3
37	1	/
38	-1[16.7 µM]	/
39	30[16.7 µM]	17
40	260*[16.7 µM]	-12
41	14[16.7 µM]	-3
42	200*[16.7 µM]	37
43	/	/
44	11	-8
45	18	-20

# Reformatted: results already given
[39] O=C(Cc1ccccc1)N1C[C@H]2[C@@H](c3ccccc31)[C@H](CO)N2C(=O)C1CCCCC1
[40] O=C(C1CCCCC1)N1C[C@H]2[C@@H](c3ccccc31)[C@@H](CO)N2C(=O)c1ccccc1
screen / no. | 39 | 40
C2C12 statin | 11 | -11
Cneo AK release | -3 | -2
miR122 inh | 30[16.7 µM] | 260*[16.7 µM]
UUG fidelity | 17 | -12

# (continued)
cpd	mol	C2C12 statin	Cneo AK release
46	Cc1ccc(-n2c(CSc3nc(C)cc(C)n3)n[nH]c2=S)cc1	/	/
47	CN(C)CC(=O)N[C@H]1CC[C@H](CCn2cc(C3CC3)nn2)O[C@@H]1CO	-1	0
48	O=C(COc1cccc(Oc2ccccc2)c1)Nc1ncccn1	107*	/
49	O=C(COc1ccccc1)Nc1nn[nH]n1	112*	-3
50	CCC(=O)N(C)C[C@@H]1Oc2cc(C#CCC(C)C)ccc2S(=O)(=O)N([C@@H](C)CO)C[C@@H]1C	-10	58
51	COCC(=O)N1C[C@@H]2[C@H](c3ccccc31)[C@@H](CO)N2C(=O)C1CCCCC1	8	0
52	COc1ccc(S(=O)(=O)N(C)C[C@@H]2Oc3ccc(NC(=O)NC(C)C)cc3C(=O)N([C@@H](C)CO)C[C@H]2C)cc1	/	/
53	O=C(CC(c1ccccc1)c1ccco1)N1CCOCC1 (centres undefined)	128*	1
54	O=C(C(c1ccccc1)c1ccccc1)N1CCOCC1	-5	1
55	COc1ccc(-c2ccc3c(c2)[C@H]2[C@H](CCN2S(=O)(=O)c2ccc(OC)cc2)[C@@H](CO)N3C)cc1	-6	0
56	Cc1cc(N2CCN(c3cccc(C)c3C)CC2)nc(-c2ccccc2)n1	117*	21
57	Cc1ccc(NC(=O)CSc2nnc(-c3cccnc3)o2)c(C)c1	9	/
58	Cc1ccc(C)c(CSc2nnc(-c3cccnc3)o2)c1	3	-7

cpd	miR122 inh	UUG fidelity
46	-1	/
47	/	-2
48	-2	/
49	8	-16
50	6[16.7 µM]	76
51	-11[16.7 µM]	-10
52	-5[16.7 µM]	3
53	7	-10
54	213*	-11
55	-6[16.7 µM]	-13
56	3	-25
57	5	/
58	356*	-9

# Source: PubChem
